Laboratory results taken from patent US4451473A, “3,7-Diazabicyclo [3.3.1] nonanes having anti-arrhythmic activity” (Richter Gedeon Vegyeszeti Gyar Rt., priority 1981, dated 1984).
Structures can show the parent of a compound that is named as a salt.

How the values were obtained:
[1] = test system: disorders of cardiac rhythm provoked by aconitine in rats; type: in vivo; conditions: ED50 rat i.v. / LD50 mouse i.v.
Protocol: When examining the antiarrhythmic effects, rats were pre-treated intravenously with 1 mg/kg of aconitine to provoke disorders of cardiac rhythm [Med. Exp. (Basel) 10, 93 (1964)], thereafter the test compound was administered intravenously, and the dose required to restore the rhythm in 50% (ED50 mg/kg) was determined.
The therapeutical indices (ED50 /LD50) as well as the ratio of indices (therapeutical index of the new compound:therapeutical index of Lidocaine) are also given in the Table.

[2] = test system: calcium antagonistic effect; test: Calcium antagonistic effect (pA2); conditions: in words
[3] = ratio oral to intravenous; species not stated
in vivo = conditions: mouse, iv

CCN1CC2CN(C)CC(C1)C2OC(=O)c1ccc(Cl)cc1 (stereo not drawn) [3-Methyl-7-ethyl-9α-(4'-chloro-benzoyloxy)-3,7-diazabicyclo[3.3.1]nonane dihydrochloride]
Therap. index (ED50/LD50) [1]: 0.023
calcium antagonistic effect (pA2) relative to Verapramil [2]: about the same as that of the Verapramil
ED50 p.o./ED50 i.v. [3]: 16.7
LD50 (in vivo): 26 mg/kg
